Data from publication PMC5519534, “AM-37 and ST-36 Are Small Molecule Bombesin Receptor Antagonists” (Frontiers in Endocrinology, 2017).

Amino acid sequences for entries named in this document (tags omitted).
UniProt P30989, whole entry: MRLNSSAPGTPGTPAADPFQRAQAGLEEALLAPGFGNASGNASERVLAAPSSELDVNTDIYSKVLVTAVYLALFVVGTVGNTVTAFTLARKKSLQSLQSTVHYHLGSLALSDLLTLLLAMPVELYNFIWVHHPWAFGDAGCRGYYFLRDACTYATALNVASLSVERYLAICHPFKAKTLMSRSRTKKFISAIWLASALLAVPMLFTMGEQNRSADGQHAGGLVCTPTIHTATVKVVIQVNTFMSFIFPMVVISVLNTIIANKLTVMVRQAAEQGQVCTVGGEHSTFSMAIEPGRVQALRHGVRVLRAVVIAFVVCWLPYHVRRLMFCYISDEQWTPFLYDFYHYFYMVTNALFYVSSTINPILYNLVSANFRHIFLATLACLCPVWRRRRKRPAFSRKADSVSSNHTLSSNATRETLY

Target: T1, NTR (Homo sapiens, UniProt P30989)
T1 construct: endogenous in cells; host or cells: NCI-H1299 (transfected with bombesin receptors)
Assay: Neurotensin-induced cytosolic Ca2+ in NSCLC cells (specificity)
Type: cell-based
Settings: 10 nM

neurotensin [reference compound]
Effect on cytosolic Ca2+: strongly increased
